This is an account of results in publication PMC7191384, “Multimodal α-Glucosidase and α-Amylase Inhibition and Antioxidant Effect of the Aqueous and Methanol Extracts from the Trunk Bark of Ceiba pentandra” (BioMed Research International, 2020).

Structures are written as SMILES.

The experiment concerns the target T1, α-amylase (Sus scrofa, UniProt P00690).
T1 sequence (P00690 16-511): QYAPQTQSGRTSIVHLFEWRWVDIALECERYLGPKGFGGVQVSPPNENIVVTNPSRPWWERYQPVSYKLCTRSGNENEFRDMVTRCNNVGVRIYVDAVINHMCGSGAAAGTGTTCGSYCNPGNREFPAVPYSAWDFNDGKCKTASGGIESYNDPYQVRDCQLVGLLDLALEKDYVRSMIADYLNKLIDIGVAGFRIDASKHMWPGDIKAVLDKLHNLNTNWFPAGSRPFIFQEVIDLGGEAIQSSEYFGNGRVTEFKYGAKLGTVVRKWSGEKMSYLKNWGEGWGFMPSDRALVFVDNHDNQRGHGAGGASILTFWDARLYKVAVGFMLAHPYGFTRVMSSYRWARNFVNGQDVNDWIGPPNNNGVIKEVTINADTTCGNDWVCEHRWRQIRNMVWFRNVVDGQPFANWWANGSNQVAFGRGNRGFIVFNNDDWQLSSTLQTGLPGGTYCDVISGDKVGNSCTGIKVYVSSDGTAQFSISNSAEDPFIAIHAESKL
Put plainly: α-Amylase inhibitory test (starch/DNS). It is filed as biochemical. Particulars: at the highest concentrations used.

In the case of `C[C@H]1O[C@H](O[C@H]2[C@H](O)[C@@H](O)[C@@H](O[C@H]3[C@H](O)[C@@H](O)C(O)O[C@@H]3CO)O[C@@H]2CO)[C@H](O)[C@@H](O)[C@@H]1N[C@H]1C=C(CO)[C@@H](O)[C@H](O)[C@H]1O` (stereo partly shown) [Acarbose, acarbose], the “Maximum inhibition of α-amylase” value is 84%.
